Experimental data: patent publication US10463630B2, “Interaction of methylated LSD1 and CHD1, a compound inhibiting this interaction for use in therapy, and a screening method for such a compound” (Albert-Ludwigs-Universität Freiburg, priority 2015, dated 2019)

Legend:
CHD1 D425A = target: T1, CHD1 D425A (Homo sapiens, UniProt O14646, D425A); assay: ITC with CHD1 D425A mutant; format: binding; conditions: data not shown
T1 construct: titration of LSD1aa104-127 K114me0, 1, 2, and 3 peptides to CHD1aa270-443; made in house; E. coli likely, inferred from the pET15b vector of the wild-type fragment
T1 sequence (O14646 270-443 D425A): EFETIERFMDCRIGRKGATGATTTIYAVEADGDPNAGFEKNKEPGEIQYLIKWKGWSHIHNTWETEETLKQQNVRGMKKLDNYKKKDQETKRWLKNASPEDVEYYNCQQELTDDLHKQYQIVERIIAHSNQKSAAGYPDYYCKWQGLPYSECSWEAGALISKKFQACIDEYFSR
Source text: Amino acid residues 110-116 of the LSD1 peptide were modelled according to the electron density (FIG. 2c). […] This interaction involves residues Y295, W322, W325 from chromodomain 1 and D408 and D425 from chromodomain 2 (FIG. 2b and FIG. 5a). The methylammonium group of LSD1 K114 and side chains of W322 and W325 of CHD1 form cation-π interactions. […] It was therefore hypothesized that the R113-D425 interaction may be a discriminating feature of CHD1 binding either LSD1 K114me2 or H3K4me3 peptide and that the corresponding surface could be exploited for the design of inhibitors specifically interfering with LSD1 K114me2 but not H3K4me3 interaction (see FIG. 5c). […] Next, it was tested whether in vivo the interaction of CHD1 with LSD1 depends on LSD1 methylation. In the presence of G9A, endogenous CHD1 only coimmunoprecipitated with methylated Flag-LSD1, but not with Flag-LSD1 K114A (FIG. 2d). To investigate whether CHD1 and LSD1 K114me2 are present in the same protein complex, LNCaP cell extracts were subjected to sucrose gradient centrifugation. […] Furthermore, endogenously expressed CHD1 and LSD1 K114me2 coimmunoprecipitated with G9A from LNCaP cell extracts (FIG. 2f). Together, these observations identify CHD1 as a LSD1 K114me2 reader.
ITC experiments were performed at 25° C. with a MicroCal VP-ITC microcalorimeter (GE Healthcare). […]

[1] = target: T2, CHD1 double chromodomain (GST-CHD1 Chromo 1/2) (Homo sapiens, UniProt O14646); assay: Protein profiling on protein-domain microarrays with LSD1 peptides; format: binding; conditions: GST-fusion proteins
T2 sequence (O14646 268-443 limits assumed): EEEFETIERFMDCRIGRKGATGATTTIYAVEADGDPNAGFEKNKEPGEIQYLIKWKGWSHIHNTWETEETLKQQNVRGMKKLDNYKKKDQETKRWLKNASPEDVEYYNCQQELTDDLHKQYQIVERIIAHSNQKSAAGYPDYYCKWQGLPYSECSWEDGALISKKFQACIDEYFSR
Protocol: To identify potential LSD1 K114me2 methyl-lysine reader proteins, protein profiling was performed on protein-domain microarrays using un- and dimethylated LSD1 peptides LSD1aa104-127 and LSD1aa104-127 K114me2, respectively (see also ref.^14). In this profiling assay, several GST-fusion proteins including CHD1 fused to GST were used. Other GST-fusions that were used were e.g. PhD-domain proteins (BPTF, ING2 or PHF2), BROMO-domain proteins (GCN5, TAF1-D1 or TAF1-D2), or BRCT-proteins (BRCA1, 53BP1 or Crb2).

CSCC[C@H](NC(=O)[C@H](CCC(=O)O)NC(=O)[C@H](CCCNC(=N)N)NC(=O)[C@H](Cc1ccc(O)cc1)NC(=O)[C@H](CCC(=O)O)NC(=O)[C@@H](NC(=O)[C@H](CCCCN)NC(=O)[C@H](C)NC(=O)[C@H](CCCNC(=N)N)NC(=O)[C@H](CCCCN(C)C)NC(=O)[C@H](CCCNC(=N)N)NC(=O)[C@H](CCCNC(=N)N)NC(=O)[C@H](CO)NC(=O)[C@@H](NC(=O)[C@H](CCCNC(=N)N)NC(=O)[C@H](CCCNC(=N)N)NC(=O)CNC(=O)[C@H](CCC(=O)O)NC(=O)[C@@H]1CCCN1C(=O)[C@@H](N)[C@@H](C)O)[C@@H](C)O)C(C)C)C(=O)N[C@@H](CC(=O)O)C(=O)N[C@@H](CCC(=O)O)C(=O)N[C@@H](CO)C(=O)N[C@@H](CC(C)C)C(=O)O [LSD1 K114me2]
effect of D425A mutation in CHD1 on peptide binding (CHD1 D425A): abolished the interaction
interaction with CHD1 double chromodomain on microarray [1]: specifically interacted
